# Values of other authors as cited in patent publication US20100190706A1, “Stable Non-Aqueous Pharmaceutical Compositions” (NOVO NORDISK A/S, priority 2007, published 2010).
# Conditions: cited from earlier work
substance,measurement,value
insulin,retained and metabolized in first passage through the liver,roughly 60%
